Chains of the proteins cited; added tags and fusions are not shown. Lines headed by an entry give the natural chain unless they say otherwise; changes in a name come on top.
UniProt P32300, whole entry: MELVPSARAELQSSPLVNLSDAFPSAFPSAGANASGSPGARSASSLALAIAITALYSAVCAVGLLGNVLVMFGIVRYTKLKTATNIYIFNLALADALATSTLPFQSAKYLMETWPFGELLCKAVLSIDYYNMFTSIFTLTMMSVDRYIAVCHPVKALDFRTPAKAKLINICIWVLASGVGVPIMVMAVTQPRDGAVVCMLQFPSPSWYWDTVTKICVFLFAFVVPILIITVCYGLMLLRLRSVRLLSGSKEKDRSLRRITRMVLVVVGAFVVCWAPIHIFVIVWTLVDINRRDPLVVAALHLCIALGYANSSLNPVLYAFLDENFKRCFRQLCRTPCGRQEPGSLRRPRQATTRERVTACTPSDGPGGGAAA

In US5578725A, “Delta opioid receptor antagonists” (priority 1995, dated 1996):

Key:
[1] = molecular target: δ1 (Mus musculus, UniProt P32300); settings: tail flick, mice
[2] = molecular target: T1, δ2 (Mus musculus, UniProt P32300); experiment: Tail-flick assay, antagonism of DSLET (δ2) antinociception; assay type: in vivo, male Swiss-Webster mice; settings: mice
T1 construct: male Swiss-Webster mice; from tissue; host or cells: living mouse (male Swiss-Webster)

Substance | Control ED50 (95% C.L.) ([1]; DPDPE i.c.v., no antagonist) | Peak antinociceptive activity time ([1]; agonist) [min] | Control ED50 (95% C.L.) ([2]; DSLET i.c.v., no antagonist) | Peak antinociceptive activity time ([2]; agonist) [min]
[D-Pen^2 -D-Pen^5 ]enkephalin [DPDPE, reference compound] | 8.6 (6.5-11.1) nmol | 20 | – | –
[D-Ser^2 -Leu^5 ]enkephalin-Thr^6 [DSLET, reference compound] | – | – | 0.7 (0.3-1.0) nmol | 10
